## Measured affinities in a library of Ab-91 heavy chain variants

All variants were tested on one target, the spike HR2 peptide PDVDLGDISGINAS (SARS-CoV-2).

Parent: Ab-91, a human scFv built as VL, the linker GGGGSGGGGSGGGGS, VH. Only the CDRs of the heavy chain vary.
VL: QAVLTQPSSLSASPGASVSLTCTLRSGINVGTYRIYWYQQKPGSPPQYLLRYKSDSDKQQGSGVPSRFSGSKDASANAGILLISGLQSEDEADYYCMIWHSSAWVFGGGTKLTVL
VH: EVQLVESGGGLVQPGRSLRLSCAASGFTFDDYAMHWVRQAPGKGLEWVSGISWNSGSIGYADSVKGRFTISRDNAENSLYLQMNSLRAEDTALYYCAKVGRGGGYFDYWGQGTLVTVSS

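In library AAYL51, one, two or three CDR residues were substituted; doubles and triples were drawn at random. In AlphaSeq, yeast of one mating type display the scFv and yeast of the other type display the target. After mating in shaken culture at 30 °C for 16 h, diploids were selected and their barcode pairs sequenced. Each replicate has its own calibration line, from reference interactions of the BCL2 family. Each pool was mated in three replicate cultures.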

Each variant is given by its three heavy chain CDRs, as the data file delimits them; those of the parent are GFTFDDYAMH, GISWNSGSIGYADSVK, VGRGGGYFDY. All variants listed here change N54 of the VH, counted from its first residue. Values are log10 of the apparent Kd in nM; lower means stronger binding. Replicates are averaged; those with no signal do not enter the mean. "ND" means that the variant was in the library but no mating with the target was seen in that replicate; the authors take this as a sign of poor binding, and no number exists. Entries are sorted by rising average, undetected variants last. Parent in this assay: reference entry 1.86, copy in this library 0.88.

Variant GFTFDQYAMH / GISWDSGSIGVADSVK / VGRGGGYFDY gave 0.57, 0.65, -0.12 (mean 0.37). For GFTFDDYAMH / GISWHSGSIGYADSVK / VYRGSGYFDY, the assay gave 3.00, 2.30, 2.38 (mean 2.56). For GFIFDDYAMH / GISWHSGSIGYADSVK / VGRGGGYFDY, the assay gave 2.96, 2.43, 2.53 (mean 2.64). Variant GFTFDDYAMG / GISWMSGSIGYADSVK / VGRQGGYFDY gave ND, 3.13, ND. Variant GFTFDDYAMH / GISWQSGSEGCADSVK / VGRGGGYFDY gave ND, 3.34, ND.

For GFTFDDYAMH / GISWPSGSIGYADSVK / KGRGGGYFDY, the assay gave 3.68, ND, 3.10 (mean 3.39). With GFTFDDYAMH / GISWTEGSIGYADSVK / QGRGGGYFDY the result was 3.61, ND, ND. Variant GFTFDDYAMH / GISWSSGSIGYADSVK / VQRGGGYFDY showed 3.75, ND, ND. With GTAFDDYAMH / GISWSSGSIGYADSVK / VGRGGGYFDY the result was 3.81, ND, ND. Variant GFVFDDYAMS / GISWKSGSIGYADSVK / VGRGGGYFDY gave 3.86, ND, ND.

With WFTFDDYAMH / GISWCSGSIGYADSVK / VGRGGGYFDY the result was 3.87, 3.98, ND (mean 3.93). For KFTFDDYAMH / GISWISGSIGYADSVK / VGRGGGYKDY, the assay gave 3.20, 4.69, ND (mean 3.95). With GFTFDTYAMH / GISWYSGSIGYADTVK / VGRGGGYFDY the result was 4.07, ND, ND. With GFPFDDYAMH / GISWVSGSIGYADSVK / VGRGGGYFDN the result was 3.54, 4.61, ND (mean 4.08). For GFTFDDYAMH / GISWQSGSIGYATSVK / VGRGGGYFDY, the assay gave 4.16, ND, ND.

Variant GFTFDDTAMH / GISWLSGSPGYADSVK / VGRGGGYFDY showed 4.00, 4.53, ND (mean 4.26). For GFTFDDYAMH / GISWMSHSIGYADSVK / VGRGGGYFDY, the assay gave 3.80, 4.86, 4.58 (mean 4.41). With GFTFDDYAEH / GISWDSGSIGYADSVK / VGRGGGYFDY the result was ND, 5.02, 3.81 (mean 4.41). With GFTFDDYAMH / WISWPSGSIGYADSVK / VGRGGGYFDY the result was 4.97, 4.16, ND (mean 4.57). Variant GFTFDDYAMH / GISWHSGSIGYEDSVK / VCRGGGYFDY gave ND, 3.75, 5.51 (mean 4.63).

With GSTFDDYAMH / GASWQSGSIGYADSVK / VGRGGGYFDY the result was 4.68, ND, ND. Variant GFMFDDYAMH / GISWMSGSIGYADSVK / VGRGGGYFWY gave 3.82, 5.44, 4.81 (mean 4.69). Variant GFTFDDYAMH / DISWKSGSIGYADSVK / VGRGGGTFDY gave ND, ND, 4.71. With GFTFDDYAMH / GESWRSGSIGYAVSVK / VGRGGGYFDY the result was ND, 4.72, ND. Variant GFTFDDYAMH / GISWHSGSIGYEDQVK / VGRGGGYFDY gave 4.74, ND, 4.71 (mean 4.72).

With GFTFDDYAMH / GISWESGSIGYANSVK / WGRGGGYFDY the result was ND, ND, 4.75. For GFTFDDYAYH / GISWPDGSIGYADSVK / VGRGGGYFDY, the assay gave ND, 4.75, ND. Variant GFTFDDYAMH / GISIGSGSIGYFDSVK / VGRGGGYFDY gave ND, ND, 4.80. Variant GFTFDDTAMH / GISWQSGSIGYADSVK / VGGGGGYFDY showed ND, 5.15, 4.85 (mean 5.00). For GGTFDDYAMH / GISWQSGKIGYADSVK / VGRGGGYFDY, the assay gave 5.14, 6.28, 4.62 (mean 5.34).

For GFTFDDYAMP / GISWPSGSIGYADSVK / VGRGGCYFDY, the assay gave ND, ND, ND. Variant GFTFDDYAMT / GISWGSGSIGYADSVK / VGRGGRYFDY gave ND, ND, ND. For GFTFDDYAMH / GISWMYGSIGYADSVK / VGRGGIYFDY, the assay gave ND, ND, ND. For GFTFDDYAMH / GISWLSGSIGYADSVM / VGRGAGYFDY, the assay gave ND, ND, ND. For GFTFDDYAMH / GISWYSGSIGYADSVK / VGRTYGYFDY, the assay gave ND, ND, ND.

Variant GFTFDDYAMH / GISWDSGSIGYADSVK / VGRGGWYFQY gave ND, ND, ND. With GFTFDDYAMH / GISWHSGSIAYADSVK / VGRGGGYMDY the result was ND, ND, ND. Variant GFTFDDYAMQ / GISWESGSWGYADSVK / VGRGGGYFDY showed ND, ND, ND. For GFTFDDYAMH / GISWWSGSLGYADSVK / VGRGGGYFRY, the assay gave ND, ND, ND. Variant GFTFDDYAMH / GISWRYGSIGYADSVK / VFRGGGYFDY gave ND, ND, ND.

Variant GFTFDDYAMH / GISWSSGSIGYADSWC / VGRGGGYFDY gave ND, ND, ND. Variant FFTFDDYAMH / GISWESGSIGYADSVK / VGRGGGYWDY gave ND, ND, ND. Variant GFTFDDYAMH / GHSWESGSIGYADSVK / VGPGGGYFDY gave ND, ND, ND. With GFTFDDYACH / GISWSSHSIGYADSVK / VGRGGGYFDY the result was ND, ND, ND. Variant GFTFDDMAMH / GISWPSGSIGYADSVK / VGRGTGYFDY gave ND, ND, ND.

For GFTFDDYAMH / GWVWDSGSIGYADSVK / VGRGGGYFDY, the assay gave ND, ND, ND. Variant GFTFDDYAMH / GISWLSGSIGYAMSVK / VGRGGYYFDY showed ND, ND, ND. Variant GFTFDDIAMH / GISWPSGSIGYMDSVK / VGRGGGYFDY gave ND, ND, ND. For GFTFDDYAGH / GISWISGSIGVADSVK / VGRGGGYFDY, the assay gave ND, ND, ND.

Nonspecific signal, from three strains lacking the peptide, appeared in 21% of pairings of library AAYL51, centred on 4.54 (5% of these signals below 3.26); values are not corrected for it.

From the AlphaSeq antibody data of Engelhart et al. 2022 (doi:10.1038/s41597-022-01779-4), copy in the FLAb collection.